Measurements taken from PubChem BioAssay AID652048 (National Center for Advancing Translational Sciences (NCATS), 2013).
Only a part is listed here, and it is no random draw. The source made the active and inactive calls. Cut-off read from the data, not from the text of the source: active = max activation above about 30%; inactive = the rest.

Protein sequences, listed by entry. Tags and fused reporters are not part of them.
UniProt P35462, whole entry: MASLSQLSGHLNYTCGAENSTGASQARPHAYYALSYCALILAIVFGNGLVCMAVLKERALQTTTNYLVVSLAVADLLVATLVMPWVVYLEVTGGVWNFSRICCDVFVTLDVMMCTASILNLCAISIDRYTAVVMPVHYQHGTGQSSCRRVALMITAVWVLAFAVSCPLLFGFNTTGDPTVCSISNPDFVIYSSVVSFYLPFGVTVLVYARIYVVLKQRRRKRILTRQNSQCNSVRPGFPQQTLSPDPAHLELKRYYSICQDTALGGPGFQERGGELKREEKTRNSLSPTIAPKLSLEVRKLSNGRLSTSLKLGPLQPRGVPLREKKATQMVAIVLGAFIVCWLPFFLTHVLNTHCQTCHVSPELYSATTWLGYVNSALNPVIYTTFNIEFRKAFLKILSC

The compounds below were run against D(3) dopamine receptor (Homo sapiens) (UniProt P35462) (assay: qHTS of D3 Dopamine Receptor Agonist: qHTS). Settings: D3R DiscoveRx beta-arrestin cells, luminescence, 90 min; stronger effect = higher value.
Excerpt: D3 DARs represent a very important target for the treatment of several neuropsychiatric disorders. Indeed, one of the most promising therapeutic applications for the D3 DAR is in the area of addiction and related disorders. […] These findings have been observed with a number of addictive substances including cocaine, amphetamine, nicotine, and alcohol. […] Antagonism of the D3 DAR may also be therapeutic in the treatment of schizophrenia or psychosis. […] Since the D3 DAR is expressed in areas of the CNS associated with the control of mood and emotion, it has been hypothesized that selective antagonism of the D3 DAR may be effective in treating psychosis without inducing the motor side effects typically seen with D2 DAR antagonists.
This part of the project aims to discover novel agonist.
NIH Chemical Genomics Center [NCGC]
NIH Molecular Libraries Probe Centers Network [MLPCN]
Assay Submitter (PI): David Sibley, NINDS
Freshly passaged cells are plated in 1536 well white, solid bottom plates at a density of 1500 cells/well in 3microl of complete media. After an overnight incubation at 37 degrees C in 5% CO2, cells are loaded with 23nl of test compound from the compound library (as well as dopamine controls) using a 1536 pintool and incubated at 37 degrees C for 90 minutes. Two microliters of DiscoveRx reagent is then added to all cells, and they are incubated for an additional 30 - 60 minutes at room temperature. Following incubation, luminescence is measured on a ViewLux CCD-based luminometer reader using a 20 sec exposure time.
Note: 0% is about no effect.

| SMILES | max activation |
| --- | --- |
| c1ccc(CN2CCC(Nc3ccccc3)CC2)cc1 | inactive: 0.747% |
| CC(C)(C)n1nnnc1C(c1cccc2ccccc12)N1CCC(n2c(=O)[nH]c3ccccc32)CC1 (centres undefined) | inactive: 3.22% |
| N#Cc1ccc(C(=O)NCC2(N3CCCCC3)CCCCC2)cc1 | inactive: 0.558% |
| O=C(NCC1(N2CCOCC2)CCCCC1)c1ccccc1[N+](=O)[O-] | inactive: -14.1% |
| CC(C)(C)OC(=O)N1CCC(N(C(=O)c2ccccc2)c2ccc(Cl)cc2)CC1 | inactive: -3.84% |
| O=C(NCC1(N2CCOCC2)CCCCC1)c1ccc([N+](=O)[O-])cc1 | inactive: 3.08% |
| CCOC(=O)C(CC)C1=NC(C)(C)Cc2ccccc21.O=[N+]([O-])c1cc([N+](=O)[O-])c(O)c([N+](=O)[O-])c1 (centres undefined) | inactive: -4.03% |
| CCN1CCC(Nc2cccc(F)c2)CC1 | inactive: 0.0835% |
| COc1ccc(C(c2nnnn2C2CCCCC2)N2CCC(n3c(=O)[nH]c4ccccc43)CC2)cc1 (centres undefined) | inactive: -12.5% |
| CC(C)(C)n1nnnc1C(c1ccnc2ccccc12)N1CCC(n2c(=O)[nH]c3ccccc32)CC1 (centres undefined) | inactive: 0.84% |
| Cc1ccccc1NC1(C#N)CCN(Cc2ccccc2)CC1 | inactive: -5.32% |
| Cc1ccccc1C(=O)NCC1(N(C)C)CCCCC1 | inactive: 18.2% |
| CN(C)c1ccc(C(=O)NCC2(N3CCCCC3)CCCCC2)cc1 | inactive: -11.6% |
| Cn1c(=O)[nH]cc(N(CCCl)CCCl)c1=O | inactive: 7.32% |
| O=C(NCC1(N2CCCCC2)CCCCC1)c1ccco1 | inactive: -9.72% |
| CC(C)(C)c1ccc(C(=O)NCC2(N3CCOCC3)CCCCC2)cc1 | inactive: -9.99% |
| CCC(c1nnnn1C1CCCCC1)N1CCC(n2c(=O)[nH]c3ccccc32)CC1 (centres undefined) | inactive: -4.51% |
| CN(C)C1(CNC(=O)c2ccc(C(C)(C)C)cc2)CCCCC1 | inactive: -23.9% |
| COc1cccc(C(c2nnnn2C2CCCCC2)N2CCC(n3c(=O)[nH]c4ccccc43)CC2)c1OC (centres undefined) | inactive: 7.34% |
| CC(=O)N(c1ccccc1)C1CCNCC1 | inactive: 12% |

| SMILES | max activation |
| --- | --- |
| COc1cc(OC)cc(C(=O)NCC2(N3CCCCC3)CCCCC2)c1 | inactive: -12.9% |
| O=c1[nH]c2ccccc2n1C1CCN(C(c2ccnc3ccccc23)c2nnnn2C2CCCCC2)CC1 (centres undefined) | inactive: 7.3% |
| Fc1ccccc1NC1CCN(Cc2ccccc2)CC1 | inactive: -27.5% |
| Cc1ccc(Nc2c([N+](=O)[O-])cc([N+](=O)[O-])cc2[N+](=O)[O-])cc1 | inactive: -5.99% |
| Cc1ccc(C(=O)NCC2(N3CCCCC3)CCCCC2)o1 | inactive: -10.1% |
| Cc1ccc(NC2(C#N)CCN(Cc3ccccc3)CC2)cc1 | inactive: 2.18% |
| COc1cc(OC)cc(C(=O)NCC2(N3CCOCC3)CCCCC2)c1 | inactive: -10.9% |
| COc1cccc(C(c2nnnn2C2CCCC2)N2CCC(n3c(=O)[nH]c4ccccc43)CC2)c1OC (centres undefined) | inactive: 4.69% |
| COc1cc(C(=O)NCC2(N3CCOCC3)CCCCC2)cc(OC)c1OC | inactive: -8.33% |
| COc1cccc(C(=O)N(c2cc(C)cc(C)c2)C2CCN(C(=O)OC(C)(C)C)CC2)c1 | inactive: -10.2% |
| CCC(CO)(C(=O)OC1CN2CCC1CC2)c1ccccc1 (centres undefined) | inactive: -3.31% |
| CN1CCC(Nc2ccc(Cl)cc2)CC1 | inactive: 0.418% |
| CN1CCC(Nc2ccc(F)c(Cl)c2)CC1 | inactive: -3.14% |
| CCOc1ncccc1C(=O)NCC1(N2CCOCC2)CCCCC1 | inactive: -7.46% |
| O=C(O)C1(Nc2ccccc2)CCN(Cc2ccccc2)CC1 | inactive: -1.27% |
| NN(c1ccccc1)C1CCN(CCc2ccccc2)CC1 | inactive: -10.6% |
| CC(C)(C)OC(=O)N1CCC(Nc2ccccc2)CC1 | inactive: -6.7% |
| O=c1[nH]c2ccccc2n1C1CCN(C(c2cc3ccccc3o2)c2nnnn2C2CCCC2)CC1 (centres undefined) | inactive: 0.53% |
| CCCOc1ccc(C(=O)NCC2(N(C)C)CCCCC2)cc1 | inactive: -1.15% |
